From publication PMC2751792 (Journal of the American Chemical Society, 2009)

The chains behind the UniProt entries cited, without tags or fusion partners. Where a name states a change or a piece, a line headed by the entry shows the natural chain unless it says otherwise.
UniProt Q13547, whole entry: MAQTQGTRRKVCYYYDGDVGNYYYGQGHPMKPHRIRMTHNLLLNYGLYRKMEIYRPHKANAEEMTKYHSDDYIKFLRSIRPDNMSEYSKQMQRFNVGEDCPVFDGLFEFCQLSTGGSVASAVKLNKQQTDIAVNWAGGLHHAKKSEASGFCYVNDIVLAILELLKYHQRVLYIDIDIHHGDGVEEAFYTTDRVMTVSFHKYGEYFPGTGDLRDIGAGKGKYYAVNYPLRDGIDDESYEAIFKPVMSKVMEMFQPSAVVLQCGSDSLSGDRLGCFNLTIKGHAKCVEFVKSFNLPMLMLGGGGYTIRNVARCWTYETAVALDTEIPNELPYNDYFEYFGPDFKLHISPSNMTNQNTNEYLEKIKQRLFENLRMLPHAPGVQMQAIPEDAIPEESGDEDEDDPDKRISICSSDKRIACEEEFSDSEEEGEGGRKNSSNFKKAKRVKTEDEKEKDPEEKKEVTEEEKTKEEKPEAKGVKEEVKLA
UniProt O15379: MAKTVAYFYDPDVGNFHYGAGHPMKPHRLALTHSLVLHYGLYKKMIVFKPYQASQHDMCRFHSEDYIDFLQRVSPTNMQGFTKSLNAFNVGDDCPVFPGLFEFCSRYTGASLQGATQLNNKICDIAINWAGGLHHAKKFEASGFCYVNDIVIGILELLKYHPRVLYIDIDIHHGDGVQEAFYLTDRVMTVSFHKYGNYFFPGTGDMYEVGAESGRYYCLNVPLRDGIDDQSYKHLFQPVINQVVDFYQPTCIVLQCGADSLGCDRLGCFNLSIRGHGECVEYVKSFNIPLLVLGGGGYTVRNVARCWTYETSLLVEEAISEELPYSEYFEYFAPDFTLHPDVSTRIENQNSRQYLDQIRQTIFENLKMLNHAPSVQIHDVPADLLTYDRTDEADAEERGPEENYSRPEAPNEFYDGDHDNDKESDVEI

Tests used:
Type in all cases: biochemical
recombinant human HDAC1 = recombinant human HDAC1 (Homo sapiens, UniProt Q13547); test: Recombinant HDAC isoform inhibition, HDAC1
recombinant human HDAC3 = recombinant human HDAC3 (Homo sapiens, UniProt O15379); test: Recombinant HDAC isoform inhibition, HDAC3
recombinant human HDAC6 = biological target: T1, recombinant human HDAC6 (Homo sapiens, UniProt Q9UBN7); test: Recombinant HDAC isoform inhibition, HDAC6
T1 sequence (Q9UBN7 1-1215): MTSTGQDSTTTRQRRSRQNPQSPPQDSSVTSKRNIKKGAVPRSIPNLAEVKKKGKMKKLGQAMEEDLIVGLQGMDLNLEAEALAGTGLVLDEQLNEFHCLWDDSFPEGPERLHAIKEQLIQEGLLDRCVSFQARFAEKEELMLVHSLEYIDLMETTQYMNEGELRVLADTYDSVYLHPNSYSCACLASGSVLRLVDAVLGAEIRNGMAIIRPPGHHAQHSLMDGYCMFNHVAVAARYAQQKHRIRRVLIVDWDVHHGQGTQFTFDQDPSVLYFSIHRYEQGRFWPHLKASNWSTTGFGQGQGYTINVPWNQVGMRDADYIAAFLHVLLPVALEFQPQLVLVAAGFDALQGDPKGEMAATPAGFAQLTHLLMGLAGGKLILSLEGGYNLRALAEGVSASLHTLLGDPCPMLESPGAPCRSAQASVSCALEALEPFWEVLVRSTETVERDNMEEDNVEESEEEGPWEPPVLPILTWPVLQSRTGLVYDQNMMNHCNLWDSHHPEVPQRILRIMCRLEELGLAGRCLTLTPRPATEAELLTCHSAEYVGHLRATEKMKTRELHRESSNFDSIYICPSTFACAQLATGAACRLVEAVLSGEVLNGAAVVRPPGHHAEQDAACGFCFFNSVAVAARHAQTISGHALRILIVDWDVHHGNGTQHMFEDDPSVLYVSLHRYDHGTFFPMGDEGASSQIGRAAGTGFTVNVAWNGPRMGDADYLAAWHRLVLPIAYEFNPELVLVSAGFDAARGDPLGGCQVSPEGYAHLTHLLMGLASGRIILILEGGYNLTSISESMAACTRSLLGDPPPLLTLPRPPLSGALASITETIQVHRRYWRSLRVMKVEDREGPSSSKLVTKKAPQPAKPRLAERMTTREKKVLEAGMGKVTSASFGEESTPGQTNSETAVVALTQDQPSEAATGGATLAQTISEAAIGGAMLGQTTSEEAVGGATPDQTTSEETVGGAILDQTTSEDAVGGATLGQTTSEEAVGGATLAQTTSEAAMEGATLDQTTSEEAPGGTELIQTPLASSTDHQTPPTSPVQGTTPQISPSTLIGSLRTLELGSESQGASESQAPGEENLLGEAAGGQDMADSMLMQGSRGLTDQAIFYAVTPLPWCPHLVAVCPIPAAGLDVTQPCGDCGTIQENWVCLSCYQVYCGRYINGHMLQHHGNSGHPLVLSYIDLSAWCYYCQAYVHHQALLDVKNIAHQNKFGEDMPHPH

Molecule `CC(C)C[C@H]1CC(=O)N[C@@H](C)C(=O)N[C@@H](CCCCCC(=O)NO)C(=O)N[C@@H](Cc2c[nH]c3ccccc23)C(=O)N1` [3a] has an IC50 (recombinant human HDAC1) of 1.5 nM, an IC50 (recombinant human HDAC3) of 25 nM and an IC50 (recombinant human HDAC6) of 30 nM.
